PubChem BioAssay (NCI)
Where “and” joins values, the source holds several entries; their conditions need not be identical. Identical values can stand only once. Only a part is listed here, and it is no random draw.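 How to read the values: 0–100, growth inhibition (40 = 60% inhibited); 0, no net growth; -100 to 0, cell death (-40 = 40% of starting cells died; -100 = all dead).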 Calls of active or inactive are those of the source. Rule for the calls: active = growth percent below 10; inactive = the rest.

Assays:
Assay in all cases: NCI-60 one-dose screen, 48 h (100 = growth as untreated, 0 = no growth, -100 = all killed)
Settings in all cases: 10 µM
[1] = test system: NCI-H23 lung
[2] = test system: NCI-H226 lung
[3] = test system: NCI-H322M lung
[4] = test system: HOP-62 NSCLC
[5] = test system: NCI-H460 lung
[6] = test system: HOP-92 NSCLC
[7] = test system: NCI-H522 lung
[8] = test system: A549/ATCC NSCLC
[9] = test system: 786-0 renal
[10] = test system: COLO 205 colon
[11] = test system: DU-145 prostate
[12] = test system: K-562 leukemia
[13] = test system: MALME-3M melanoma
[14] = test system: MDA-MB-231 breast
[15] = test system: RXF 393 renal
[16] = test system: SF-268 CNS
[17] = test system: SF-295 CNS
[18] = test system: SF-539 CNS
[19] = test system: UACC-257 melanoma
[20] = test system: M14 melanoma

Measured: growth

Oc1ccc(N(CCCl)CCCl)cc1
inactive: [1] 82.2% | [2] 92.3% | [3] 112% | [4] 90.9% | [5] 16.3% | [6] 86.7% | [7] 76.9% | [8] 54.4% | [9] 96.4% | [10] 81.9% | [11] 104% | [12] 79.2% | [13] 109% | [14] 115% | [15] 92.8% | [16] 66.5% | [17] 47.7% | [18] 74.2% | [19] 102% | [20] 87.7%

N#CC(C#N)=Cc1ccc2c(c1)OCO2
inactive: [1] 104% and 102% | [2] 96.6% and 89.7% | [3] 96.7% and 110% | [4] 108% and 84.7% | [5] 102% and 103% | [6] 125% | [7] 107% and 94% | [8] 107% and 94.6% | [9] 105% and 97.8% | [10] 117% and 115% | [11] 107% and 108% | [12] 91.3% and 105% | [13] 91.7% and 103% | [14] 116% | [15] 96% | [16] 100% and 98.6% | [17] 108% and 104% | [18] 97.5% and 95.3% | [19] 95.8% and 98.2% | [20] 98.7% and 95.9%

Oc1ccc(Br)cc1CN(CCCl)CCCl
inactive: [1] 48.3% | [2] 91.4% | [3] 114% | [4] 52.8% | [5] 18.8% | [6] 90.5% | [7] 53.3% | [8] 62.6% | [9] 36.4% | [10] 85.1% | [11] 38.8% | [12] 61.1% | [13] 95.8% | [14] 104% | [15] 88.4% | [16] 49.4% | [17] 35.2% | [18] 43.8% | [19] 97.1% | [20] 51.9%

ClCCN1CCN(CCCl)CC1
inactive: [1] 101% and 103% | [2] 98.9% and 92.5% | [3] 92.7% and 99.4% | [4] 95.7% and 98.2% | [5] 105% and 103% | [6] 109% | [7] 94% | [8] 96.9% and 98.7% | [9] 105% and 96.4% | [10] 98.9% and 101% | [11] 109% and 90% | [12] 99.8% and 99% | [13] 87.7% and 87.2% | [14] 112% and 106% | [15] 97.2% and 98.3% | [16] 105% and 94.5% | [17] 97.1% and 138% | [18] 102% and 100% | [19] 101% and 98.1% | [20] 101% and 96.3%

Cc1ccc(NC2(C#N)CCN(Cc3ccccc3)CC2)cc1
inactive: [1] 108% | [2] 93.8% | [3] 94.7% | [4] 89% | [5] 103% | [6] 89.1% | [7] 87.5% | [8] 93.8% | [9] 101% | [10] 129% | [11] 107% | [12] 101% | [13] 91.2% | [14] 101% | [15] 91.1% | [16] 110% | [17] 105% | [18] 93.7% | [19] 83.3% | [20] 90%

O=C1CCN(Cc2ccccc2)CC1
inactive: [1] 97.5% | [3] 102% | [4] 120% | [5] 108% | [6] 69.5% | [7] 105% | [8] 94.5% | [9] 103% | [11] 106% | [12] 91.4% | [13] 106% | [14] 95.4% | [15] 114% | [16] 105% | [17] 107% | [18] 110% | [19] 105% | [20] 103%

Cc1ccc(S(=O)(=O)CN(CCBr)CCBr)cc1
inactive: [1] 105% | [2] 103% | [3] 110% | [4] 109% | [5] 103% | [6] 96.1% | [7] 92.2% | [8] 90.1% | [9] 106% | [10] 125% | [11] 118% | [12] 112% | [13] 118% | [14] 115% | [16] 108% | [17] 91% | [18] 100% | [19] 80.1% | [20] 99.4%

COc1cccc(N(CCCl)CCCl)c1OC
inactive: [1] 74.3% | [2] 85.9% | [3] 132% | [4] 56.2% | [5] 28.1% | [7] 62.4% | [9] 94.4% | [10] 86.9% | [11] 96.8% | [12] 83.8% | [13] 104% | [14] 89.4% | [15] 93.5% | [16] 69% | [17] 70.4% | [18] 55.5% | [19] 97.9% | [20] 83.1%

O=P1(N(CCCl)CCCl)SCCCS1
inactive: [1] 98.3% | [2] 110% | [3] 132% | [4] 110% | [5] 111% | [7] 111% | [8] 104% | [9] 102% | [10] 125% | [11] 116% | [12] 119% | [13] 142% | [14] 109% | [15] 126% | [16] 101% | [17] 109% | [18] 137% | [19] 104% | [20] 114%

CC1(C)NC(=O)N(CCN(CCCl)CCCl)C1=O
inactive: [1] 109% | [2] 101% | [3] 91.8% | [4] 108% | [5] 104% | [9] 99.9% | [10] 106% | [11] 118% | [12] 108% | [13] 93.1% | [14] 115% | [15] 112% | [16] 113% | [17] 98.2% | [18] 113% | [20] 105%

OCC#CCN(CCCl)CCCl
inactive: [2] 89.4% | [4] 94.1% | [5] 100% | [6] 83.1% | [7] 115% | [8] 91.8% | [9] 98.8% | [10] 86.4% | [11] 102% | [12] 87.4% | [13] 89.5% | [14] 104% | [15] 89.2% | [16] 92.3% | [17] 96.3% | [18] 98.8% | [19] 96.7% | [20] 102%

CCCCOc1ccc(N(CCCl)CCCl)cc1
inactive: [1] 80.7% | [2] 100% | [3] 103% | [4] 73.1% | [6] 99.6% | [7] 81.2% | [8] 93.4% | [9] 107% | [10] 110% | [11] 103% | [12] 100% | [13] 99.8% | [14] 111% | [15] 109% | [16] 96.3% | [17] 105% | [18] 108% | [19] 97.8% | [20] 106%

c1ccc(CN2CCC(Nc3ccccc3)CC2)cc1
inactive: [1] 93.2% | [2] 97.9% | [3] 102% | [4] 89.7% | [5] 109% | [6] 85.7% | [7] 102% | [8] 124% | [9] 96% | [10] 102% | [11] 113% | [13] 102% | [14] 92.8% | [15] 102% | [16] 116% | [17] 97.2% | [18] 104% | [19] 146% | [20] 106%

COc1cc(N(CCCl)CCCl)cc(OC)c1OC
inactive: [1] 86.4% | [2] 84.5% | [3] 114% | [4] 91.6% | [5] 77.8% | [6] 91.9% | [7] 92% | [8] 80.6% | [9] 98.6% | [10] 84.4% | [11] 102% | [12] 96.6% | [13] 99.2% | [14] 86.3% | [16] 84.7% | [17] 94.8% | [18] 92.8% | [20] 97.5%

O=C1CCN(CCc2ccccc2)CC1
inactive: [1] 79% | [2] 102% | [3] 98% | [4] 76.7% | [5] 107% | [6] 95.3% | [7] 83.4% | [8] 97% | [9] 86.3% | [11] 132% | [12] 116% | [13] 99.1% | [14] 100% | [15] 98.2% | [16] 120% | [17] 102% | [18] 94.9% | [19] 101% | [20] 67.8%

Cc1ccc(CN(CCCl)CCCl)cc1
inactive: [1] 90% | [2] 84.8% | [3] 94.3% | [5] 92.8% | [6] 84.4% | [7] 72.4% | [8] 95.1% | [9] 96.2% | [10] 96% | [11] 110% | [12] 98.9% | [13] 87.1% | [14] 107% | [15] 97.4% | [17] 100% | [18] 87.6% | [19] 106% | [20] 89.2%
